In patent US10466253B2, “Molecular flux rates through critical pathways measured by stable isotope labeling in vivo, as biomarkers of drug action and disease activity” (The Regents of the University of California, priority 2004, dated 2019):

Tested on: brain galactocerebroside (GalCer)
Experiment: Fractional synthesis of myelin (deuterium incorporation into galactocerebroside)
Details: during cuprizone treatment

Substance: cuprizone
- synthesis of galactocerebroside (GalCer) in the brain: suppress synthesis
- fractional synthesis of GalCer (deuterated water for last 3 weeks, control 12% new in 3 weeks): about 5 % new
